# Laboratory results taken from PubChem BioAssay (EPA / NIEHS).
# Values joined by “and” are separate entries in the source; they are usually repeats but may differ in a detail not shown here. Equal entries are not always repeated. Only a part is listed here, and it is no random draw. Some structures have more than one record in an assay (separate samples or runs), and their calls can disagree. Active and inactive are the calls of the source. Rule for the calls: active = hit-call score of the fitted dose curve at least 0.9, where 1 is the maximum; inactive = score below 0.9.
# Key:
# [1] = read-out: Interleukin-8 (IL8), CXCL8 (gene 3576); test: BSK_hDFCGF_IL8: BioMAP Diversity Plus: hDFCGF Assay for Interleukin-8 (IL8) Biomarker Activity (AID 2283058); details: actives raise or lower the signal; primary human foreskin fibroblasts
# How it was run: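 Cells used are human skin primary fibroblasts. Chemical is added, cultures run 24 h, then IL-8 is quantified by ELISA, and gain or loss versus DMSO control is fitted in both directions.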
# [2] = BSK_hDFCGF_Proliferation: Cell Proliferation Assessment in the BioMAP Diversity Plus: hDFCGF Assay (AID 2283059); details: primary human foreskin fibroblasts;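 note: curves fitted for both rise and fall of signal versus DMSO baseline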
# How it was run: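 This proliferation readout used SRB total-protein staining of human foreskin fibroblasts […], normalized to DMSO with bidirectional curve fitting.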
# [3] = read-out: Macrophage colony-stimulating factor (MCSF), CSF1 (gene 1435); test: BSK_hDFCGF_MCSF: BioMAP Diversity Plus: hDFCGF Assay for Macrophage colony-stimulating factor (MCSF) Biomarker Activity (AID 2283060); details: actives raise or lower the signal; primary human foreskin fibroblasts
# Protocol: BSK_hDFCGF is a cell-based, multiplexed-readout assay that uses foreskin fibroblast, a human skin primary cell, with measurements taken at 24 hours after chemical dosing in a 96-well plate.BSK_hDFCGF_MCSF is an assay component measured in the BSK_hDFCGF assay. It measures M-CSF antibody related to regulation of gene expression using ELISA technology.Data from the assay component BSK_hDFCGF_MCSF was analyzed into 1 assay endpoint. This assay endpoint, BSK_hDFCGF_MCSF, was analyzed with bidirectional fitting relative to DMSO as the negative control and baseline of activity. Using a type of binding reporter, gain or loss-of-signal activity can be used to understand changes in the signaling as they relate to the gene CSF1. Furthermore, this assay endpoint can be referred to as a primary readout, because this assay has produced multiple assay endpoints where this one serves a signaling function. To generalize the intended target to other relatable targets, this assay endpoint is annotated to the cytokine intended target family, where the subfamily is colony stimulating factor.
# (§1) The levels of cell surface (or secreted, indicated by the prefix "s") biomarker endpoints were measured by ELISA. Overt cytotoxicity to cells in confluent adherent cultures (all systems other than the BT system) was assessed by measuring total protein levels using sulforhodamine B (SRB) staining in parallel cultures at the time of biomarker measurements, indicated as SRB endpoints. For proliferation assays for adherent cell types, individual cell types are cultured at sub-confluence and relative cell numbers quantified by SRB staining at time points optimized for each system (48 h: 3C and CASM3C systems; 72 h: BT and HDF3CGF systems; 96 h: SAg system). SRB was performed by staining cells with 0.1% SRB after fixation with 10% TCA and reading wells at 560 nm.Viability and proliferation of PBMC (T cells) was quantified by Alamar Blue reduction for the SAg and BT systems. For PBMC viability (referred to as PBMC Cytotoxicity within the assay endpoint names), cells were plated (75,000/well in a 96-well plate) and then chemical samples added for 1 h before addition of activators, SEB and TSST-1 (20 ng/mL final concentration each). Cells were incubated for 90 h. Then, Alamar Blue (20 uL/well) (Invitrogen, Cat DAL1100) was added for 6 h, and the plates were read with a fluorescence microplate reader at 546/580 nm (excitation/emission). For PBMC proliferation, cells were plated and activated as above but incubated for only 16 h prior to addition of Alamar Blue. Plates were read after 6 h.
# [4] = BSK_hDFCGF_SRB: Viability Assessment in the BioMAP Diversity Plus: hDFCGF Assay (AID 2283061); details: primary human foreskin fibroblasts;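 note: cells exposed to compound for 24 h before the read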
# How it was run: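 Readout is SRB absorbance at 560 nm, reflecting total protein in parallel cultures of human foreskin fibroblasts harvested 24 h after chemical dosing. Activity was fitted bidirectionally relative to DMSO.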
# [5] = read-out: TIMP metallopeptidase inhibitor 1 (TIMP1), TIMP1 (gene 7076); test: BSK_hDFCGF_TIMP1: BioMAP Diversity Plus: hDFCGF Assay for TIMP metallopeptidase inhibitor 1 (TIMP1) Biomarker Activity (AID 2283062); details: actives raise or lower the signal; primary human foreskin fibroblasts
# Protocol: BSK_hDFCGF is a cell-based, multiplexed-readout assay that uses foreskin fibroblast, a human skin primary cell, with measurements taken at 24 hours after chemical dosing in a 96-well plate.BSK_hDFCGF_TIMP1 is an assay component measured in the BSK_hDFCGF assay. It measures TIMP-1 antibody related to regulation of gene expression using ELISA technology.Data from the assay component BSK_hDFCGF_TIMP1 was analyzed into 1 assay endpoint. This assay endpoint, BSK_hDFCGF_TIMP1, was analyzed with bidirectional fitting relative to DMSO as the negative control and baseline of activity. Using a type of binding reporter, gain or loss-of-signal activity can be used to understand changes in the signaling as they relate to the gene TIMP1. Furthermore, this assay endpoint can be referred to as a primary readout, because this assay has produced multiple assay endpoints where this one serves a signaling function. To generalize the intended target to other relatable targets, this assay endpoint is annotated to the protease inhibitor intended target family, where the subfamily is metalloproteinase inhibitor.
# as §1
# [6] = read-out: Monokine induced gamma interferon (MIG), CXCL9 (gene 4283); test: BSK_hDFCGF_MIG: BioMAP Diversity Plus: hDFCGF Assay for Monokine induced gamma interferon (MIG) Biomarker Activity (AID 2283063); details: actives raise or lower the signal; primary human foreskin fibroblasts
# How it was run: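 Chemicals were added to primary human foreskin fibroblast cultures, which were sampled 24 h later. MIG levels were then quantified by ELISA and responses fitted in both directions relative to DMSO.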
# [7] = read-out: Matrix Metallopeptidase 1 (MMP1), MMP1 (gene 4312); test: BSK_hDFCGF_MMP1: BioMAP Diversity Plus: hDFCGF Assay for Matrix Metallopeptidase 1 (MMP1) Biomarker Activity (AID 2283064); details: actives raise or lower the signal; primary human foreskin fibroblasts
# How it was run: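 Human foreskin fibroblasts exposed to chemical for 24 h; MMP1 detected by ELISA, with DMSO as baseline for bidirectional fitting.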
# [8] = read-out: Vascular cell adhesion molecule 1 (VCAM1), VCAM1 (gene 7412); test: BSK_hDFCGF_VCAM1: BioMAP Diversity Plus: hDFCGF Assay for Vascular cell adhesion molecule 1 (VCAM1) Biomarker Activity (AID 2283065); details: actives raise or lower the signal; primary human foreskin fibroblasts;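 for AC50: VCAM-1 protein level quantified by ELISA after 24 h chemical exposure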
# How it was run: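 Human foreskin fibroblast primary cells, chemical exposure 24 h; VCAM-1 by ELISA; bidirectional fit, DMSO = negative control/baseline.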
# [9] = read-out: Plasminogen activator inhibitor-1 (PAI1), SERPINE1 (gene 5054); test: BSK_hDFCGF_PAI1: BioMAP Diversity Plus: hDFCGF Assay for Plasminogen activator inhibitor-1 (PAI1) Biomarker Activity (AID 2283066); details: actives raise or lower the signal; primary human foreskin fibroblasts
# How it was run: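 ELISA readout of PAI-1 from primary human skin fibroblast cultures, 24 h after compound addition. Gain or loss of signal was fitted bidirectionally against DMSO baseline.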
# [10] = read-out: Intercellular Adhesion Molecule 1 (ICAM1), ICAM1 (gene 3383); test: BSK_KF3CT_ICAM1: BioMAP Diversity Plus: KF3CT Assay for Intercellular Adhesion Molecule 1 (ICAM1) Biomarker Activity (AID 2283067); details: actives raise or lower the signal; primary human keratinocytes with fibroblasts
# How it was run: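 ICAM-1 levels are measured by ELISA 24 h after dosing a primary human co-culture of keratinocytes and foreskin fibroblasts. Activity in either direction is fitted relative to DMSO vehicle.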
SMILES,outcome [1],outcome [2],outcome [3],outcome [4],outcome [5],outcome [6],outcome [7],outcome [8],outcome [9],outcome [10],AC50 [2],AC50 [3],AC50 [4],AC50 [6],AC50 [8],AC50 [9],AC50 [1],AC50 [7]
O=C(Cl)Oc1ccccc1,inactive,inactive,inactive,inactive,inactive,inactive,inactive,inactive,inactive,inactive,,,,,,,,
O=C1C2CC=CCC2C(=O)N1SC(Cl)(Cl)C(Cl)Cl (stereo unspecified),,,,,inactive,,,,,,active: 933 nM,active: 597 nM,active: 148 nM,active: 1720 nM,active: 1030 nM,active: 1.3 µM,,
CN(C(=O)Cc1cccc2occc12)[C@H]1CC[C@@]2(CCCO2)C[C@@H]1N1CCCC1,inactive,inactive,inactive,inactive,inactive,inactive,inactive,inactive,inactive,inactive,,,,,,,,
Cc1cc([N+](=O)[O-])cc([N+](=O)[O-])c1O,inactive,,,inactive,inactive,,inactive,,inactive,inactive,active: 20000 nM,active: 20000 nM,,active: 20000 nM,active: 4770 nM,,,
CC(C)OP(=S)(OC(C)C)SCCNS(=O)(=O)c1ccccc1,inactive,,,,,inactive,inactive,,inactive,inactive,,,active: 28.4 µM and active: 20.2 µM and active: 27.1 µM,active: 33200 nM,,active: 33.2 µM and active: 36.2 µM,active: 29.2 µM and active: 36.1 µM,active: 36.8 µM and active: 36.2 µM
O=[N+]([O-])c1ccc([N+](=O)[O-])cc1,inactive,,inactive,inactive,inactive,inactive,inactive,inactive,inactive,inactive,,,,,,,,
